SMILES strings stand for the structures.

The chains behind the UniProt entries cited, without tags or fusion partners.
UniProt P31389, whole entry: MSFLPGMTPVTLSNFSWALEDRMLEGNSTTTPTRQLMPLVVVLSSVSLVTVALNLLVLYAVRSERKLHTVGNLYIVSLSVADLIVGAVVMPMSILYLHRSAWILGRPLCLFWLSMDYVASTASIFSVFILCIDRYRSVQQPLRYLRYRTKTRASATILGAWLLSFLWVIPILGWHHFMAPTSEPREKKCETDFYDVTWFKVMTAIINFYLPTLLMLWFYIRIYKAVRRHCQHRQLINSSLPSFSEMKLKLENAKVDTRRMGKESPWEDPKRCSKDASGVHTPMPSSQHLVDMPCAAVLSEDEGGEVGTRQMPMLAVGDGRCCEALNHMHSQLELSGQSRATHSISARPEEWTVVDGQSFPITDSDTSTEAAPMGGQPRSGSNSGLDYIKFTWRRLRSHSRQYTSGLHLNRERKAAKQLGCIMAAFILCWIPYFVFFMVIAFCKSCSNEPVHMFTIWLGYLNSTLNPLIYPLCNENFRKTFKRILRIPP

The target in the assay is histamine H-1 receptors (Cavia porcellus, UniProt P31389). As to conditions: Hill coefficient of the binding curve.

In the case of `COc1ccc(CN(CCN(C)C)c2ccccn2)cc1` [Pyrilamine], the “Inhibition of Pyrilamine Binding at H-1 Receptor, (nH)” value was “(0.98)”.

Source of the values: patent US7214684B2, “Methods for the treatment of allergic rhinitis” (Sepracor Inc., priority 1994, dated 2007).
